Reference: article PMC9201511 (RSC Advances, 2022)

Tested on: pEGFR
Assay: Western blot, EGF-induced phosphorylation of EGFR
Assay type: cell-based, human
Conditions: A431, various concentrations, 24 h, then EGF 50 ng mL^−1 15 min

## COc1cc2ncnc(Nc3ccc(F)c(Cl)c3)c2cc1OCCCN1CCOCC1 [Gefitinib, gefitinib]
  level of phosphorylated EGFR (pEGFR): reduced the level of phosphorylated EGFR
